Earlier results in patent US20130338178A1, “SIRTUIN MODULATORS AS INHIBITORS OF CYTOMEGALOVIRUS” (THE TRUSTEES OF PRINCETON UNIVERSITY, priority 2011, published 2013).
Read-outs that look alike come from different tables or passages of the source.

Experiments:
[1] = molecular target: T1, SIRT1 (Homo sapiens, UniProt Q96EB6); conditions: cited from earlier work
T1 sequence (Q96EB6 1-747): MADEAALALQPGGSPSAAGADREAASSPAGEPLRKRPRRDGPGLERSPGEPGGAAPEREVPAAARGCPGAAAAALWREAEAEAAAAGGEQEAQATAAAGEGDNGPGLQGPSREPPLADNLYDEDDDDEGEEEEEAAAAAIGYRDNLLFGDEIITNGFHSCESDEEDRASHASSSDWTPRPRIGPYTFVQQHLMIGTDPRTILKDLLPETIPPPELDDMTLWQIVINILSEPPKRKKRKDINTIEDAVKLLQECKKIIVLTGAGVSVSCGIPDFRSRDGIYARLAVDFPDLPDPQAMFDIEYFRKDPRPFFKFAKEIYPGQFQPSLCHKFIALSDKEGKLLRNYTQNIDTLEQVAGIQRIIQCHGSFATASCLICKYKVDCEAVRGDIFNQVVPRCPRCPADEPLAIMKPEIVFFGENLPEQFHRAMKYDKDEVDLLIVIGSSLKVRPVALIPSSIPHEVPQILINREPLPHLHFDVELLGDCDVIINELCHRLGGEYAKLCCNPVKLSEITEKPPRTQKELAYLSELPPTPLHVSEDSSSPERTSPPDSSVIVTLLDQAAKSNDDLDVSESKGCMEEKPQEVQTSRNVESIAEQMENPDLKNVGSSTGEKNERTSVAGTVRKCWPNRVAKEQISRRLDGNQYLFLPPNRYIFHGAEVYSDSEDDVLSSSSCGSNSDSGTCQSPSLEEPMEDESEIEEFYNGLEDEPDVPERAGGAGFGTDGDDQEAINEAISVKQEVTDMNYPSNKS

[2] = molecular target: T1, SIRT1; conditions: cited from earlier work; remark: listed apart in the source

Compound	IC50 [1] [µM]	IC50 [2] [µM]
O=C1CCc2c(ccc3ccccc23)O1 [Splitomycin]	> 500	
Cambinol	> 600	56
